PubChem BioAssay AID813 (Sanford-Burnham Center for Chemical Genomics, 2007)
The list shows a part of the results, in another mix than the full data. Activity calls are given as the source filed them.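 How the source made its calls: active means activation factor of at least 2 at 20 µM, relative to controls; inactive means the rest.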

The chains behind the UniProt entries cited, without tags or fusion partners.
UniProt P05186, whole entry: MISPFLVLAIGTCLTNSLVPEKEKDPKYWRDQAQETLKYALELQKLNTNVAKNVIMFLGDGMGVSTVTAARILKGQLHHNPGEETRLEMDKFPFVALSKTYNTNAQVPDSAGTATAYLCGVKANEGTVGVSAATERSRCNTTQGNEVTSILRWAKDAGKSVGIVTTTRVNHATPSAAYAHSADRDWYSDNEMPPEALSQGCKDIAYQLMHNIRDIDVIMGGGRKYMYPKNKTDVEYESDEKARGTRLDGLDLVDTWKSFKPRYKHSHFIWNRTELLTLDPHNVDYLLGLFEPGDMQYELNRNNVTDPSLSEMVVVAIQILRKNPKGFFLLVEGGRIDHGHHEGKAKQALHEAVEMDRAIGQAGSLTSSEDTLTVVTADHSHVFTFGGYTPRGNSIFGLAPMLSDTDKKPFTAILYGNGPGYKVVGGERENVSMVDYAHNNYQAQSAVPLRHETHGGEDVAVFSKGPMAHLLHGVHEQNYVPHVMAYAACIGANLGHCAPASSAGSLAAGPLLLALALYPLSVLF

Molecular target: Alkaline phosphatase, tissue-nonspecific isozyme (Homo sapiens) (UniProt P05186)
Test: stimulation of alkaline phosphatase TNAP activity – biochemical, luminescent, intermediate phosphate acceptor level, primary screen (AID 813)
Conditions: purified TNAP, CDP-star luminescence, 100 mM DEA, 30 min, at 20 µM; active compounds read high, scale: 0 levamisole-inhibited, 1 vehicle-only enzyme

Row | Structure (SMILES) | activation factor
1 | COc1ccc(NC2CCN(CCc3ccccc3)CC2)c(OC)c1 | inactive
2 | O=C(OC1CN2CCC1CC2)C1c2ccccc2Oc2ccccc21 (configuration not stated) | inactive: 1
3 | N#CC1(Nc2ccccc2)CCN(CCc2ccccc2)CC1 | inactive
4 | N/C(=N\O)c1c(N)no[n+]1[O-] | inactive
5 | CCC(CO)(C(=O)OC1CN2CCC1CC2)c1ccccc1 (configuration not stated) | inactive
6 | CCOc1ncccc1C(=O)NCC1(N2CCOCC2)CCCCC1 | inactive
7 | Fc1ccccc1NC1CCN(Cc2ccccc2)CC1 | inactive
